Data reported in ChEMBL document CHEMBL3286325, “Synthesis and evaluation of three structurally related ¹⁸F-labeled orvinols of different intrinsic activities: 6-O-[¹⁸F]fluoroethyl-diprenorphine ([¹⁸F]FDPN), 6-O-[¹⁸F]fluoroethyl-buprenorphine ([¹⁸F]FBPN), and 6-O-[¹⁸F]fluoroethyl-phenethyl-orvinol ([¹⁸F]FPEO)” (2014).
pKi: −log10 of the molar value.

The chains behind the UniProt entries cited, without tags or fusion partners.
UniProt P35372, whole entry: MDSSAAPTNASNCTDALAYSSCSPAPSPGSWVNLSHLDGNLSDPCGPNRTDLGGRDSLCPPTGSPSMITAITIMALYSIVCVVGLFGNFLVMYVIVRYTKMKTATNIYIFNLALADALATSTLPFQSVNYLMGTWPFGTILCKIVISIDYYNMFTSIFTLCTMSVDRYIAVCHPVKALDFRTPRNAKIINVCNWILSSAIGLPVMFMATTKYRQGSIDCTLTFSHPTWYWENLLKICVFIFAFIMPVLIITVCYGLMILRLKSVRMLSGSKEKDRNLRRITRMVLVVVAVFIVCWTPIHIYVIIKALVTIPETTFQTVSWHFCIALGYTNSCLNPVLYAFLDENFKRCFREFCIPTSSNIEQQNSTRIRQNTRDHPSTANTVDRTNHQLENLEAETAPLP
UniProt P41143, whole entry: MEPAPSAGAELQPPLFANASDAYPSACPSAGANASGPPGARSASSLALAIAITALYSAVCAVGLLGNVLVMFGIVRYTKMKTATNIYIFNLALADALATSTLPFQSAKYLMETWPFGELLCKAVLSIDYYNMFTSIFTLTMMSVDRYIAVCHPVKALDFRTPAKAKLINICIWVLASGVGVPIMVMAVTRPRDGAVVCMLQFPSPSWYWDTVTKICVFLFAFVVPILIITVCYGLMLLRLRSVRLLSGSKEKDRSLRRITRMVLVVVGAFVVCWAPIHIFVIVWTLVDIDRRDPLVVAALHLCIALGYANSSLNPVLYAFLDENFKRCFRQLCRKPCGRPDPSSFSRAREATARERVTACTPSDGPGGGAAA
UniProt P41145, whole entry: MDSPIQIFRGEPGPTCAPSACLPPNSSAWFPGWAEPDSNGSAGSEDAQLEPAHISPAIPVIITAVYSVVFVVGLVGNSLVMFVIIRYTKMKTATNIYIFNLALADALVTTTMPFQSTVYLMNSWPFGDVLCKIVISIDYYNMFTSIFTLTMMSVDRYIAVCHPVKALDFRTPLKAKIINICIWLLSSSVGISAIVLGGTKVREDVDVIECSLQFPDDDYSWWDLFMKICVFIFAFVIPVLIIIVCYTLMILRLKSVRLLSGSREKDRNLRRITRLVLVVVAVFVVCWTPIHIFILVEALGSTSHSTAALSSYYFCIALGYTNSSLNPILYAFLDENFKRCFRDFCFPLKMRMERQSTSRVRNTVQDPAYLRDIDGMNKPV

Assays:
Cerebellum = test: Ratio of SUV of drug uptake in Sprague-Dawley basal ganglia to cerebellum at 8 to 68 GBq/umol, iv up to 85 mins by PET analysis; settings: rat, in vivo, strain Sprague-Dawley
Serum [1] = test: Drug uptake in Sprague-Dawley rat serum at 8 to 10 MBq after 5 mins; settings: strain Sprague-Dawley
Serum [2] = test: Drug uptake in Sprague-Dawley rat serum at 40 to 80 MBq, iv after 5 mins; settings: in vivo, strain Sprague-Dawley
Serum [3] = test: Drug uptake in Sprague-Dawley rat serum at 40 to 80 MBq, iv after 40 mins; settings: in vivo, strain Sprague-Dawley
[4] = Binding affinity to Sprague-Dawley rat serum protein at 40 to 80 MBq, iv after 40 mins; settings: strain Sprague-Dawley
Blood [5] = test: Metabolic stability in Sprague-Dawley rat blood assessed as intact compound level at 40 to 80 MBq, iv after 5 mins by radio-TLC analysis; settings: strain Sprague-Dawley
Blood [6] = test: Metabolic stability in Sprague-Dawley rat blood assessed as intact compound level at 40 to 80 MBq, iv after 20 mins by radio-TLC analysis; settings: strain Sprague-Dawley
Blood [7] = test: Metabolic stability in Sprague-Dawley rat blood assessed as intact compound level at 40 to 80 MBq, iv after 40 mins by radio-TLC analysis; settings: strain Sprague-Dawley
Brain [8] = test: Metabolic stability in Sprague-Dawley rat brain assessed as remaining compound level at 40 to 80 MBq, iv after 5 mins; settings: in vivo, strain Sprague-Dawley
Brain [9] = test: Metabolic stability in Sprague-Dawley rat brain assessed as remaining compound level at 40 to 80 MBq, iv after 20 mins; settings: in vivo, strain Sprague-Dawley
Brain [10] = test: Metabolic stability in Sprague-Dawley rat brain assessed as remaining compound level at 40 to 80 MBq, iv after 40 mins; settings: in vivo, strain Sprague-Dawley
Brain [11] = test: Metabolic stability in Sprague-Dawley rat brain assessed as intact compound level at 40 to 80 MBq, iv after 5 mins by radio-TLC analysis; settings: in vivo, strain Sprague-Dawley
Brain [12] = test: Metabolic stability in Sprague-Dawley rat brain assessed as intact compound level at 40 to 80 MBq, iv after 20 mins by radio-TLC analysis; settings: in vivo, strain Sprague-Dawley
Brain [13] = test: Metabolic stability in Sprague-Dawley rat brain assessed as intact compound level at 40 to 80 MBq, iv after 40 mins by radio-TLC analysis; settings: in vivo, strain Sprague-Dawley
Mu-type opioid receptor = Mu-type opioid receptor (Homo sapiens, UniProt P35372); test: Binding affinity to human cloned mu opioid receptor expressed in CHO cells by radioligand displacement assay
[14] = target: Delta-type opioid receptor (Homo sapiens, UniProt P41143); test: Binding affinity to human cloned delta opioid receptor expressed in CHO cells by radioligand displacement assay
[15] = target: Kappa-type opioid receptor (Homo sapiens, UniProt P41145); test: Binding affinity to human cloned kappa opioid receptor expressed in HEK293 cells by radioligand displacement assay

`CC(C)(C)[C@@](C)(O)[C@H]1C[C@@]23CC[C@]1(OCC[18F])[C@@H]1Oc4c(O)ccc5c4[C@@]12CCN(CC1CC1)[C@@H]3C5` showed a Ratio (Cerebellum) of 3.01, a Drug uptake (Serum [1]) of 16% and a Drug uptake (Serum [2]) of 60%. For the same compound, the Drug uptake (Serum [3]) was 50%, the PB [4] was 11% and the Stability (Blood [5]) was 39.3%. It also gave a Stability (Blood [6]) of 27.4%, a Stability (Blood [7]) of 27.5% and a Stability (Brain [8]) of 94%. For the same compound, the Stability (Brain [9]) was 92%, the Stability (Brain [10]) was 93% and the Stability (Brain [11]) was 94.6%. For the same compound, the Stability (Brain [12]) was 98% and the Stability (Brain [13]) was 96.9%.
`CC(C)(O)[C@H]1C[C@@]23CC[C@@]1(OCCF)[C@@H]1Oc4c(O)ccc5c4[C@@]12CCN(CC1CC1)[C@@H]3C5` gave a pKi (Mu-type opioid receptor) of 9.62, a pKi [14] of 8.10 and a pKi [15] of 9.70.
With `CC(C)(C)[C@@](C)(O)[C@H]1C[C@@]23CC[C@]1(OCCF)[C@@H]1Oc4c(O)ccc5c4[C@@]12CCN(CC1CC1)[C@@H]3C5` the pKi (Mu-type opioid receptor) was 9.62, the pKi [14] was 8.68 and the pKi [15] was 9.92.
